“And” between values parts separate entries of the source, which are not always exact repeats. Equal entries are not always repeated. The entries are a selection whose mix differs from that of the whole data set. Records with an inconclusive call do not appear. The source made the active and inactive calls. Unless noted, calls follow the shape of the full dose curve.
What was measured:
[1] = molecular target: Estrogen receptor (Homo sapiens) (UniProt P03372); test: qHTS assay for small molecule agonists of estrogen receptor alpha signaling (AID 588514); settings: ER-alpha-UAS-bla HEK293, beta-lactamase ratio, 18 h, percent of full estradiol response, vehicle zero; at 76.8 µM (top of the series);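 also: 0% = vehicle only and 100% = reference agonist; nearly all actives have a fitted effect of over 70% in size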
[2] = molecular target: Androgen receptor (Homo sapiens) (UniProt P10275); test: qHTS assay for small molecule agonists of androgen receptor signaling (AID 588515; active = well fitted curve in the direction sought with a large enough effect in the signal ratio, with a control signal flat; the % refers to the signal ratio; also: % is scaled to controls: 0 for no effect and ±100 for the full control effect); settings: AR-UAS-bla HEK293, beta-lactamase ratio, agonist 16 h; hits give high values
[3] = molecular target: Androgen receptor (Homo sapiens) (UniProt P10275); test: qHTS assay for small molecule antagonists of androgen receptor signaling (AID 588516; active = well fitted curve in the direction sought with a large enough effect in the signal ratio, with a control signal flat, not every such curve was filed as active; the % refers to the signal ratio; also: % is scaled to controls: 0 for no effect and ±100 for the full control effect); settings: AR-UAS-bla HEK293, beta-lactamase ratio, antagonist mode, 16 h; at 76.8 µM (top of the series)
[4] = molecular target: Bile acid receptor (Homo sapiens) (UniProt Q96RI1); test: qHTS assay for small molecule antagonists of farnesoid X receptor signaling (AID 588526); settings: HEK293T FXR-UAS-bla, beta-lactamase ratio, antagonist mode; at 76.7 µM (top of the series); also: % is scaled to controls: 0 for no effect and ±100 for the full control effect
[5] = molecular target: Bile acid receptor (Homo sapiens) (UniProt Q96RI1); test: qHTS assay for small molecule agonists of farnesoid X receptor signaling (AID 588527); settings: HEK293T FXR-UAS-bla, beta-lactamase ratio, 16 h; hits give high values;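 also: 0% = vehicle basal and 100% = reference agonist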
[6] = molecular target: Glucocorticoid receptor (Homo sapiens) (UniProt P04150); test: qHTS assay for small molecule agonists of glucocorticoid receptor signaling (AID 588532; active = well fitted curve in the direction sought with a large enough effect in the signal ratio, with a control signal flat; the % refers to the signal ratio;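 also: 100% = dexamethasone at 0.1 µM and 0% = DMSO only wells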); settings: HeLa MMTV-bla, beta-lactamase ratio, agonist, 18 h; hits give high values
[7] = molecular target: Glucocorticoid receptor (Homo sapiens) (UniProt P04150); test: qHTS assay for small molecule antagonists of glucocorticoid receptor signaling (AID 588533; active = well fitted inhibition curve with a large enough effect in the signal ratio, with a control signal flat, not every such curve was filed as active; the % refers to the signal ratio;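 also: cells stimulated with 2 nM dexamethasone as agonist; % is scaled to controls: 0 for no effect and ±100 for the full control effect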); settings: HeLa MMTV-bla, GRE beta-lactamase ratio, antagonist mode, 18 h; at 76.8 µM (top of the series)
[8] = molecular target: Peroxisome proliferator-activated receptor delta (Homo sapiens) (UniProt Q03181); test: qHTS assay for small molecule agonists of peroxisome proliferator-activated receptor delta signaling (AID 588534); settings: HEK293T PPARdelta-UAS-bla, beta-lactamase ratio, 18 h; at 76.7 µM (top of the series);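 also: 0% = DMSO basal wells and 100% = positive control agonist at 10 µM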
[9] = molecular target: Estrogen receptor (Homo sapiens) (UniProt P03372); test: qHTS assay for small molecule antagonists of estrogen receptor alpha signaling (AID 588513; active = well fitted curve in the direction sought with a large enough effect in the signal ratio, with a control signal flat, not every such curve was filed as active; the % refers to the signal ratio; also: % is scaled to controls: 0 for no effect and ±100 for the full control effect); settings: ER-alpha-UAS-bla HEK293, beta-lactamase ratio, antagonist mode; at 76.9 µM (top of the series)
[10] = qHTS for Inhibitors of ATXN expression: Validation (AID 588378; active = well fitted inhibition curve with a large enough effect; also: % is scaled to controls: 0 for no effect and ±100 for the full control effect; nearly all actives have a fitted effect of over 75% in size); settings: cell-based ATXN2 expression reporter assay, luminescence; at 57.1 µM (top of the series)
How it was run: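 Validation of ATXN2 expression inhibitors uses a cell-based luciferase fusion reporter in HEK293 cells, with 24 h compound exposure and paired viability (fluorescence) and reporter (luminescence) end-point reads.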

Sequences of proteins named here, by UniProt entry; tags and fusion partners are left off.
UniProt P10275, whole entry: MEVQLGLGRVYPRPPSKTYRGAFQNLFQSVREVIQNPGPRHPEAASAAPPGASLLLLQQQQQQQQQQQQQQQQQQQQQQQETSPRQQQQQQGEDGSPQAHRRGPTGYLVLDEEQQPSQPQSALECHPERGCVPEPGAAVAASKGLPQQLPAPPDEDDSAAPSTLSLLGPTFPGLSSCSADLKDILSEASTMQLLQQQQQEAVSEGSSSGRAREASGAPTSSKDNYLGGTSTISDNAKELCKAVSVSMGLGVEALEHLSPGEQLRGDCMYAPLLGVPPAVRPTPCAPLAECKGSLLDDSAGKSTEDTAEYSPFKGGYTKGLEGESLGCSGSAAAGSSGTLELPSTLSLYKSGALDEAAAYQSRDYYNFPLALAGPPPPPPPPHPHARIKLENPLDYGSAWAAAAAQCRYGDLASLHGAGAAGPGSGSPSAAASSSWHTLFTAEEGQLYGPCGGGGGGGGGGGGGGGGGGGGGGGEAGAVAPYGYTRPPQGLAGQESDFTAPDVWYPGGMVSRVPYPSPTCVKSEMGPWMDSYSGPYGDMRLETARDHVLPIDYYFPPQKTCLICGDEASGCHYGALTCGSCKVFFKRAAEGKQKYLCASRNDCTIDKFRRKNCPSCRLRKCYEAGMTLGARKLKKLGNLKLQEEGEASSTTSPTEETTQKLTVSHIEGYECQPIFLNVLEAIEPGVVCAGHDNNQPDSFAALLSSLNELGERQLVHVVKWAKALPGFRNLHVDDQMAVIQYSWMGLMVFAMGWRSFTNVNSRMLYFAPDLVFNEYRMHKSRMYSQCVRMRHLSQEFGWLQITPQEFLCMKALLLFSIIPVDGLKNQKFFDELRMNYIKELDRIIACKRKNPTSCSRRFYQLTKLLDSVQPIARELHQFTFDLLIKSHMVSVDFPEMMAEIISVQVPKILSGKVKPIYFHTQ
UniProt Q03181, whole entry: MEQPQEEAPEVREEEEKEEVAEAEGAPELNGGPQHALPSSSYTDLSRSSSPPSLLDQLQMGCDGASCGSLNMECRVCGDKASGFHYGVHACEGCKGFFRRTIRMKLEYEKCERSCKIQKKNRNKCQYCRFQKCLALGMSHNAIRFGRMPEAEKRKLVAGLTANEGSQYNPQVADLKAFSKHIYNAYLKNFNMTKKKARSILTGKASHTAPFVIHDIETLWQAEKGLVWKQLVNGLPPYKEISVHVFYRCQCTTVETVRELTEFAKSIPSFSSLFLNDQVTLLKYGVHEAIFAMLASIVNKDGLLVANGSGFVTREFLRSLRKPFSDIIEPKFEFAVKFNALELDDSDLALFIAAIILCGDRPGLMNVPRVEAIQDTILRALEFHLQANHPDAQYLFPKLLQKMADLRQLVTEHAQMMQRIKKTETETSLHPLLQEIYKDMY

CCOP(=S)(CC)Oc1cc(Cl)c(Cl)cc1Cl (configuration not stated)
inactive: activation [1] 14% | activation [2] -1.98% | activity change, negative = inhibition [3] -17.1% | activity change, negative = inhibition [4] -5.72% | activation [5] 1.39% | activation [6] 5.51% | activity change, negative = inhibition [7] -12% | activation [8] 2.14%

Cc1ccc([N+](=O)[O-])c([N+](=O)[O-])c1
inactive: activity, negative = inhibition [9] -23.6% | activation [1] 0.178% and -4.98% | activation [6] 3.57% | activity change, negative = inhibition [7] -3.59% and -1.24%

CCOP(=O)(CC)OCC
inactive: activity change, negative = inhibition [4] -11% | activation [5] -3.32% | activation [6] -2.11% | activity change, negative = inhibition [7] 1.36%

Cc1cccc([N+](=O)[O-])c1[N+](=O)[O-]
inactive: activation [2] -9.79% | activity change, negative = inhibition [3] -13% | activation [6] 2.22% and 1.91% | activity change, negative = inhibition [7] -7.34% | activation [8] -0.0575% and -1.01%

Cc1c([N+](=O)[O-])cccc1[N+](=O)[O-]
inactive: activity change, negative = inhibition [4] -7.75% and -1.57% | activation [5] -0.419% and -0.602% | activation [6] 1.62% and -12.5% | activity change, negative = inhibition [7] 15.1% and -4.85% | activation [8] 6.71% and -6.19%

O=[N+]([O-])c1cccc([N+](=O)[O-])c1
inactive: activity, negative = inhibition [9] -20.8% and -0.0557% | activation [1] -0.292% and 2.07% | activity change, negative = inhibition [4] 15.6% | activation [5] 3.63% and 2.17% | activation [6] 2.4% and 0.597% | activity change, negative = inhibition [7] 22% | activation [8] 0.54% and 5.33%

Cc1ccc([N+](=O)[O-])cc1[N+](=O)[O-]
inactive: activity, negative = inhibition [9] -9.66% and 22.9% | activation [1] 3.1% and 0.492%

O=[N+]([O-])[O-].[NH4+]
inactive: activation [6] 1.35% | activity change, negative = inhibition [7] 0.385%

N#[O+].[C-]#N.[C-]#N.[C-]#N.[C-]#N.[C-]#N.[Fe+2].[Na+].[Na+]
inactive: activity change, negative = inhibition [10] -4.18%

CCC(C)(OO)OOC(C)(CC)OO (configuration not stated)
inactive: activity, negative = inhibition [9] 4.24% and -1.14% | activation [1] -0.562% and -3.66% | activation [2] 10.8% and -3.78% | activity change, negative = inhibition [3] -6.35% and -7.28% | activity change, negative = inhibition [4] -0.863% and 12.1% | activation [5] -0.0852% and -1.48% | activation [6] 2.13% and -3.92% | activity change, negative = inhibition [7] -4.72% | activation [8] 12.2% and 3.01%

— PubChem BioAssay (NCATS)
